{"source": "PubChem BioAssay AID902", "about": "(National Center for Advancing Translational Sciences (NCATS), 2007)", "note": "This is a selection; strong and weak results do not stand in their true shares. Inconclusive results are not listed. Active and inactive are the calls of the source. Calls come from the whole dose curve; as a rule, active = well fitted cell-killing curve with a large enough effect; inconclusive = small, poorly fitted or top-dose-only effect; inactive = no such curve, though single readings can be large or run the other way. % is set by controls: 0 for no effect and ±100 for the full control effect.", "data": [{"assay": "qHTS Screen for Compounds that Selectively Target Cancer Cells with p53 Mutations: Cytotoxicity of p53ts Cells at the Nonpermissive Temperature; note: nearly all actives have a fitted effect of over 55% in size", "details": "H1299-p53A138V viability at 39C, ATP luminescence, 24 h; at 46.1 µM (top of the series) unless noted", "values": [{"compound": "O=P(Nc1nccs1)(c1ccccc1)c1ccccc1", "activity change, negative = cell killing": "inactive: -1.34%"}, {"compound": "CC(C)C(=O)NC(Sc1ccccc1)C(Cl)(Cl)Cl", "note": "(stereo unspecified)", "activity change, negative = cell killing": "inactive: 11.7%"}, {"compound": "c1nnnn1CCn1cnnn1", "activity change, negative = cell killing": "inactive: 8.01%"}, {"compound": "CN1CCC[C@H](OC(=O)C(c2ccccc2)c2ccccc2)C1", "activity change, negative = cell killing": "inactive: 5.4% [at 9.22 µM]"}, {"compound": "C[C@@H](O)COc1ccc([As](=O)(O)O)cc1N", "activity change, negative = cell killing": "inactive: -6.91% [at 9.22 µM]"}, {"compound": "Cc1cc([N+](=O)[O-])cc([N+](=O)[O-])c1O", "activity change, negative = cell killing": "inactive: -21.1%"}, {"compound": "[N-]=[N+]=Nc1ccc([As](=O)(O)O)cc1", "activity change, negative = cell killing": "inactive: 32.1% [at 9.22 µM]"}, {"compound": "O=C(OC1CN2CCC1CC2)c1cccc(Cl)c1", "note": "(stereo unspecified)", "activity change, negative = cell killing": "inactive: -1.17%"}, {"compound": "COC(=O)c1cc2c(s1)N=C(c1ccccc1)N(C)P2(=O)N1CCOCC1", "note": "(stereo unspecified)", "activity change, negative = cell killing": "inactive: 6.39%"}, {"compound": "O=P1(Nc2nc3ccc(Cl)cc3s2)COc2ccccc2O1", "note": "(stereo unspecified)", "activity change, negative = cell killing": "inactive: -16.9%"}, {"compound": "CN1CCCC(OC(=O)C(c2ccccc2)c2ccccc2)C1", "note": "(stereo unspecified)", "activity change, negative = cell killing": "inactive: 6.63%"}, {"compound": "O=[N+]([O-])c1ccc(C[As](=O)(O)O)cc1", "activity change, negative = cell killing": "inactive: 2.12% [at 9.22 µM]"}, {"compound": "NCC[C@@H](N)CSP(=O)(O)O", "activity change, negative = cell killing": "inactive: -5.07% [at 9.22 µM]"}, {"compound": "Cc1cc(SC(NC(=O)c2ccc(F)cc2)C(Cl)(Cl)Cl)ncn1", "note": "(stereo unspecified)", "activity change, negative = cell killing": "inactive: -16.8%"}, {"compound": "[N-]=[N+]=NCC(O)CN=[N+]=[N-]", "note": "(stereo unspecified)", "activity change, negative = cell killing": "inactive: -0.772% [at 9.22 µM]"}, {"compound": "C(Cc1nn[nH]n1)c1nn[nH]n1", "activity change, negative = cell killing": "inactive: -2.19% [at 9.22 µM]"}, {"compound": "CCc1nc2c(n1)c1c(non1O)c1c2no[n+]1[O-]", "activity change, negative = cell killing": "inactive: -8.78%"}, {"compound": "O=C(CO)Nc1ccc([As](=O)(O)O)cc1", "activity change, negative = cell killing": "inactive: -0.145% [at 9.22 µM]"}, {"compound": "COP1(=S)c2c(C)nn(CCC#N)c2N=C(c2ccc(F)cc2)N1C", "note": "(stereo unspecified)", "activity change, negative = cell killing": "inactive: -5.11%"}, {"compound": "O=C(COc1ccccc1)OC1CN2CCC1CC2", "note": "(stereo unspecified)", "activity change, negative = cell killing": "inactive: 9.63%"}, {"compound": "O=C(O)[C@@H](O)c1ccc([As](=O)(O)O)cc1", "activity change, negative = cell killing": "inactive: -9.02% [at 9.22 µM]"}, {"compound": "CCC(C)N(CC(C)C)C(=S)SC(NC(C)=O)C(Cl)(Cl)Cl", "note": "(stereo unspecified)", "activity change, negative = cell killing": "inactive: -13.1%"}, {"compound": "Cc1cc(SC(NC(=O)c2ccccc2)C(Cl)(Cl)Cl)nc(C(C)C)n1", "note": "(stereo unspecified)", "activity change, negative = cell killing": "inactive: -0.433%"}, {"compound": "ClCCSc1nnc(-c2cccnc2)o1", "activity change, negative = cell killing": "inactive: -7.17%"}, {"compound": "O=[As]c1ccc(S(=O)(=O)NCCO)cc1", "note": "(stereo unspecified)", "activity change, negative = cell killing": "inactive: 9.96% [at 9.22 µM]"}, {"compound": "[N-]=[N+]=NCC(N)=O", "activity change, negative = cell killing": "inactive: -1.56% [at 9.22 µM]"}, {"compound": "Cc1c2c(nc3ccccc13)SC(C(Cl)Cl)C2", "note": "(stereo unspecified)", "activity change, negative = cell killing": "inactive: 18.5%"}, {"compound": "O=C(OC1CN2CCC1CC2)C12CC3CC(CC(C3)C1)C2", "note": "(stereo unspecified)", "activity change, negative = cell killing": "inactive: 3.85%"}, {"compound": "NC(=O)Nc1cc([As](=O)(O)O)cc(I)c1O", "activity change, negative = cell killing": "inactive: 0.764% [at 9.22 µM]"}, {"compound": "NS(=O)(=O)Cc1ccc([As](=O)(O)O)cc1", "activity change, negative = cell killing": "inactive: -1.62% [at 9.22 µM]"}, {"compound": "O=C(CC(=O)c1ccccc1)O[C@H]1CN2CCC1CC2", "activity change, negative = cell killing": "inactive: -1.11% [at 9.22 µM]"}, {"compound": "CN(C(=O)Cc1ccc(Cl)c(Cl)c1)[C@@H]1CC[C@@]2(CCCO2)C[C@H]1N1CCCC1", "activity change, negative = cell killing": "inactive: -9.32%"}, {"compound": "CCOP1(=S)c2c(C)nn(CCC#N)c2N=C(c2ccccc2F)N1C", "note": "(stereo unspecified)", "activity change, negative = cell killing": "inactive: 2.88%"}, {"compound": "O=[As](O)(O)c1ccc([As](=O)(O)O)cc1", "activity change, negative = cell killing": "inactive: -2.38% [at 9.22 µM]"}, {"compound": "CCOP1(=S)c2c(C)nn(CCC#N)c2N=C(c2ccc(F)cc2)N1C", "note": "(stereo unspecified)", "activity change, negative = cell killing": "inactive: -4.13%"}, {"compound": "Cc1nn(-c2ccccc2)c2c1P(=O)(N1CCOCC1)N(C)C(c1ccccc1)=N2", "note": "(stereo unspecified)", "activity change, negative = cell killing": "inactive: 2.75%"}, {"compound": "O=P1(Nc2ncccn2)COc2ccccc2OC1", "activity change, negative = cell killing": "inactive: 5.79%"}, {"compound": "O=P1(Nc2ccc(Br)cn2)COc2ccccc2OC1", "activity change, negative = cell killing": "inactive: 2.25%"}, {"compound": "O=P1(Nc2ccccn2)COc2ccccc2OC1", "activity change, negative = cell killing": "inactive: 9.09%"}, {"compound": "CN(CCCl)Cc1cc(Cl)c(NC2=NCCN2)c(Cl)c1", "activity change, negative = cell killing": "inactive: 10.4%"}, {"compound": "Clc1n[nH]nc1-c1nn[nH][15n]1", "activity change, negative = cell killing": "inactive: 10%"}]}]}
